Where “and” joins values, the source holds several entries; their conditions need not be identical. Equal entries are not always repeated. This is a selection; strong and weak results do not stand in their true shares. Where a structure was tested more than once in an assay, its records may differ in their call. Calls of active or inactive are those of the source. The calls were made as follows: active = hit-call score of the fitted dose curve at least 0.9, where 1 is the maximum; inactive = score below 0.9.
Key:
[1] = APR_HepG2_CellCycleArrest_24hr: Apredica 24-hour HepG2 Assay for Cell Cycle Arrest (AID 2282905); settings: imaging, actives raise or lower the signal;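 also: cell cycle arrest scored as ratio of 2N to 4N nuclear DNA content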
How it was run: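 Compounds at 0.39–200 uM (0.5% DMSO) for 24 h, then fixed and Hoechst 33342 stained. Cell-cycle analysis of nuclear DNA content by high-content imaging, fitted bidirectionally versus DMSO.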

[2] = APR_HepG2_StressKinase_1hr: Apredica 1-hour HepG2 Assay for Stress Kinase (AID 2282906); settings: HepG2 stress kinase (phospho-c-Jun) imaging, actives raise or lower the signal
Method: APR_HepG2_1hr is a cell-based, multiplexed-readout assay that uses HepG2, a human liver cell line, with measurements taken at 1 hour after chemical dosing in a 384-well plate.APR_HepG2_StressKinase_1hr is one of 10 assay component(s) measured or calculated from the APR_HepG2_1hr assay. It is designed to make measurements of enzyme activity, a form of enzyme reporter, as detected with fluorescence intensity signals by HCS Fluorescent Imaging technology.Data from the assay component APR_HepG2_StressKinase_1hr was analyzed into 1 assay endpoint. This assay endpoint, APR_HepG2_StressKinase_1hr, was analyzed with bidirectional fitting relative to DMSO as the negative control and baseline of activity. Using a type of enzyme reporter, measures of protein for gain or loss-of-signal activity can be used to understand the signaling at the pathway-level as they relate to the gene . Furthermore, this assay endpoint can be referred to as a primary readout, because this assay has produced multiple assay endpoints where this one serves a signaling function. To generalize the intended target to other relatable targets, this assay endpoint is annotated to the cell cycle intended target family, where the subfamily is stress response.
(§1) Cells were treated with dimethyl sulfoxide (DMSO) as a solvent control at a final concentration of 0.5% v/v or with compounds in DMSO with a resulting final DMSO concentration of 0.5% v/v. Compound treatment was done at concentrations of 0.39, 0.78, 1.56, 3.12, 6.24, 12.5, 25, 50, 100, and 200 uM in duplicate on each plate. Cells were treated with compounds for 1, 24, or 72 hr. Carbonyl […] m-chloro-phenylhydrazone (CCCP) and taxol were used as positive controls for mitochondrial function and cytoskeletal stability, respectively; DMSO served as the negative control for this experiment. Cells were fixed by the direct addition of 50 uL formaldehyde in Hank's Balanced Salt Solution (HBSS) to a final concentration of 3.7%. […]

[3] = APR_HepG2_NuclearSize_24hr: Apredica 24-hour HepG2 Assay for Nuclear Size (AID 2282907); settings: high-content imaging, actives raise or lower the signal
How it was run: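 HepG2 cells exposed 24 h to compounds at 0.39–200 uM (0.5% DMSO), fixed, Hoechst 33342 stained and imaged at 20x; nuclear diameter measured by automated image analysis, fitted bidirectionally against DMSO controls.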

[4] = APR_HepG2_MicrotubuleCSK_24hr: Apredica 24-hour HepG2 Assay for Microtubule CSK Stabilty (AID 2282909); settings: HepG2 microtubule cytoskeleton imaging, actives raise or lower the signal
Method: APR_HepG2_24hr is a cell-based, multiplexed-readout assay that uses HepG2, a human liver cell line, with measurements taken at 24 hours after chemical dosing in a 384-well plate.APR_HepG2_MicrotubuleCSK_24hr is one of 10 assay component(s) measured or calculated from the APR_HepG2_24hr assay. It is designed to make measurements of protein conformation, a form of conformation reporter, as detected with fluorescence intensity signals by HCS Fluorescent Imaging technology.Data from the assay component APR_HepG2_MicrotubuleCSK_24hr was analyzed into 1 assay endpoint. This assay endpoint, APR_HepG2_MicrotubuleCSK_24hr, was analyzed with bidirectional fitting relative to DMSO as the negative control and baseline of activity. Using a type of conformation reporter, measures of protein for gain or loss-of-signal activity can be used to understand the signaling at the cellular-level. Furthermore, this assay endpoint can be referred to as a primary readout, because this assay has produced multiple assay endpoints where this one serves a signaling function. To generalize the intended target to other relatable targets, this assay endpoint is annotated to the cell morphology intended target family, where the subfamily is cell conformation.
Cells were treated with dimethyl sulfoxide (DMSO) as a solvent control at a final concentration of 0.5% v/v or with compounds in DMSO with a resulting final DMSO concentration of 0.5% v/v. Compound treatment was done at concentrations of 0.39, 0.78, 1.56, 3.12, 6.24, 12.5, 25, 50, 100, and 200 uM in duplicate on each plate. Cells were treated with compounds for 1, 24, or 72 hr. Carbonyl […] m-chloro-phenylhydrazone (CCCP) and taxol were used as positive controls for mitochondrial function and cytoskeletal stability, respectively; DMSO served as the negative control for this experiment. Cells were fixed by the direct addition of 50 uL formaldehyde in Hank's Balanced Salt Solution (HBSS) to a final concentration of 3.7%. After incubation in the fixation medium for 30 min at room temperature (293-298 K), cells were rinsed twice with HBSS and treated with cell permeabilization buffer (16 uL of 0.5% Triton X-100) for 10 min at room temperature (293-298 K) before labeling. For mitochondrial membrane potential and mitochondrial measurements, pre-fixed cells were incubated with 50 uL of MitoTracker Red CMXRos (Invitrogen) at a concentration of 250 nM for 30 min before fixation. In the remaining cases, post-fixed cells were labeled by incubation with a multiplexed mixture of primary antibodies in HBSS for 60 min at room temperature (293-298 K) to detect immunoreactivity of c-Jun (1:500), phospho-histone H3 (1:100), phospho-histone H2A.x (1:200), p53 (1:400), alpha-tubulin (1:200) and Hoechst 33342 (2 ug/mL). Cells were labeled for multiplexed imaging on two separate plates: a) Hoechst 33342, MitoTracker Red, phospho-histone H3, and alpha-tubulin, and b) Hoechst 33342, phospho-histone H2A.x, and c-Jun. A final rinse with HBSS (50 uL) was performed before analysis. The primary and secondary antibodies for the proteins were phospho-histone H3 (rabbit anti-phospho-histone H3 and FITC-donkey anti-rabbit IgG), phospho-histone H2A.x (mouse anti-phospho-histone H2A.x and FITC-donkey anti-mouse IgG), c-Jun (rabbit anti-phospho-c-Jun and Cy3-donkey anti-rabbit IgG), p53 (sheep anti-p53 and Cy5-donkey anti-sheep IgG), alpha-tubulin (mouse anti-alpha-tubulin and Cy5-donkey anti-mouse IgG). […]

[5] = APR_HepG2_MitoticArrest_24hr: Apredica 24-hour HepG2 Assay for Mitotic Arrest (AID 2282910); settings: high-content imaging, actives raise or lower the signal
How it was run: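 HepG2 cells, 24 h exposure at 0.39-200 uM (10 concentrations, duplicate, 0.5% DMSO). Fixed, stained for phospho-histone H3 with Hoechst; imaged by high-content microscopy, bidirectional fit versus DMSO.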

[6] = APR_HepG2_MitoMembPot_24hr: Apredica 24-hour HepG2 Assay for Mitochondrial Membrane Potential (AID 2282911); settings: imaging, actives raise or lower the signal
How it was run: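 Human hepatoma HepG2 cultures received ten compound concentrations up to 200 uM for 24 hr. Membrane-potential dye signal, captured by automated fluorescence microscopy, was scored for gain or loss against DMSO controls.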

[7] = APR_HepG2_MitoMass_24hr: Apredica 24-hour HepG2 Assay for Mitochondrial Mass (AID 2282912); settings: high-content imaging, actives raise or lower the signal
How it was run: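 HepG2 cells exposed 24 hr to 0.39–200 uM compound, 0.5% v/v DMSO, in duplicate. Stained before fixation with 250 nM MitoTracker Red CMXRos for 30 min, then imaged at 20x with Hoechst nuclei. Fitted in both directions against DMSO.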

[8] = APR_HepG2_p53Act_24hr: Apredica 24-hour HepG2 Assay for p53 Activation (AID 2282913); settings: high-content imaging, actives raise or lower the signal;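 also: p53 protein immunofluorescence averaged per cell in HepG2 with Hoechst nuclei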
How it was run: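 Automated fluorescence imaging quantifies p53 immunostaining in HepG2 cells after a 24 hr exposure (0.39–200 uM, duplicate, 0.5% DMSO). Nuclei are located by Hoechst 33342 staining.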

[9] = APR_HepG2_CellCycleArrest_72hr: Apredica 72-hour HepG2 Assay for Cell Cycle Arrest (AID 2282914); settings: high-content imaging, actives raise or lower the signal
How it was run: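 Cell cycle arrest in HepG2 was scored from nuclear DNA content after 72 hr compound treatment (0.39–200 uM). Activity, either gain or loss, was fitted against the DMSO baseline.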

[10] = APR_HepG2_CellLoss_24hr: Apredica 24-hour HepG2 Assay for Cell Loss (AID 2282908); settings: high-content imaging;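 as to AC50: fit in both directions so a hit may be cell loss or gain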
Method: APR_HepG2_24hr is a cell-based, multiplexed-readout assay that uses HepG2, a human liver cell line, with measurements taken at 24 hours after chemical dosing in a 384-well plate.APR_HepG2_CellLoss_24hr is one of 10 assay component(s) measured or calculated from the APR_HepG2_24hr assay. It is designed to make measurements of cell number, a form of viability reporter, as detected with fluorescence intensity signals by HCS Fluorescent Imaging technology.Data from the assay component APR_HepG2_CellLoss_24hr was analyzed into 1 assay endpoint. This assay endpoint, APR_HepG2_CellLoss_24hr, was analyzed with bidirectional fitting relative to DMSO as the negative control and baseline of activity. Using a type of viability reporter, measures of all nuclear dna for gain or loss-of-signal activity can be used to understand the viability at the cellular-level. Furthermore, this assay endpoint can be referred to as a secondary readout, because this assay has produced multiple assay endpoints where this one serves a viability function. To generalize the intended target to other relatable targets, this assay endpoint is annotated to the cell cycle intended target family, where the subfamily is proliferation.
as §1

Measured: AC50

O=C1C2CC=CCC2C(=O)N1SC(Cl)(Cl)C(Cl)Cl (stereo not given)
not listed: [10]
inactive: all other assays above

CN(C(=O)Cc1cccc2occc12)[C@H]1CC[C@@]2(CCCO2)C[C@@H]1N1CCCC1
not listed: [2]
inactive: all other assays above

Cc1cc([N+](=O)[O-])cc([N+](=O)[O-])c1O
active: [10] 64 µM | [5] 100 µM | [7] 158 µM | [8] 102 µM
inactive: [3] | [4] | [6]

CC(C)OP(=S)(OC(C)C)SCCNS(=O)(=O)c1ccccc1
active: [1] 165 µM | [2] 38.8 µM | [3] 115 µM and 111 µM | [10] 48.2 µM and 107 µM and 56.3 µM | [4] 48 µM and 166 µM | [5] 63.3 µM and 179 µM | [6] 128 µM and 8.44 µM and 104 µM | [7] 104 µM
inactive: [1] | [2] | [3] | [4] | [5] | [7] | [9]

— PubChem BioAssay (EPA / NIEHS)
